The target in assay [1] is Beta-2 adrenergic receptor (Cavia porcellus, UniProt Q8K4Z4).
For the next assay, the species on record is Cavia porcellus. Nature of the assay: Inhibition of serotonin-induced bronchoconstriction in guinea pig assessed as intrinsic duration of bronchodilatory activity at ED80.

Amino acid sequences for entries named in this document (tags omitted).
UniProt Q8K4Z4, whole entry: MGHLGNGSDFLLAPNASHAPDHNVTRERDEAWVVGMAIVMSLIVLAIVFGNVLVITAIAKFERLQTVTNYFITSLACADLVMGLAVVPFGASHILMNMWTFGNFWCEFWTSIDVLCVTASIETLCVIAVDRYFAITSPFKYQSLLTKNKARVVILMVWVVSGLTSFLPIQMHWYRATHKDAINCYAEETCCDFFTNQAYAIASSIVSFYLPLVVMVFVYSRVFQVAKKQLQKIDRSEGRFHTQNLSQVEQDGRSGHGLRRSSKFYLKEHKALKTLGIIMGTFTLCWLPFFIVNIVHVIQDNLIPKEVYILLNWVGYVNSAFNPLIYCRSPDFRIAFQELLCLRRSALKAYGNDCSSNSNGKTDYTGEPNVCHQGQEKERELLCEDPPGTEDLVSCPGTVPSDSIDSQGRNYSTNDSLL

As a reminder, the IC50 is the midpoint of a concentration-inhibition curve. In assay [1], `CC(C)(C)NCC(O)c1ccc(O)c(CO)c1` (configuration not stated) [ALBUTEROL] displayed an IC50 of 17 nM.
In the case of `COc1ccc(CC(C)NCC(O)c2ccc(O)c(NC=O)c2)cc1` (mixture of isomers) [FORMOTEROL], the Time in the assay listed under Cavia porcellus came out at 4 h.

Source of the values: ChEMBL document CHEMBL1157120, “The identification of indacaterol as an ultralong-acting inhaled beta2-adrenoceptor agonist” (J Med Chem, 2010).
